Patent US7951577B2, “Liquid crystals with reduced toxicity and applications thereof” (Wisconsin Alumni Research Foundation, priority 2003, dated 2011)

System: 3T3 fibroblasts
Conditions: after 4 to 8 hours under liquid crystal

## CCCCCc1ccc(-c2ccc(C#N)cc2)cc1 [5CB, 4-cyano-4′-pentylbiphenyl]
  morphology of cells after removal of liquid crystal: rounded up 3T3 fibroblasts were observed, and many were displaced from the surface by rinsing
